Experimental data taken from PubChem BioAssay (NCI).
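Growth conditions: 96-well plates. Treatment: test compound, 48 hours, 5 concentrations. Analysis: linear interpolation between bracketing concentrations; unreached endpoints set to highest concentration. GI50: concentration for 50% inhibition of growth. Definition used: TGI = concentration required for complete inhibition of growth.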

Columns and labels:
Experiment in all cases: NCI anticancer screen, dose series, 48 h
[1] = tested on: MALME-3M melanoma
[2] = tested on: EKVX NSCLC
[3] = tested on: TK-10 renal
[4] = tested on: M14 melanoma
[5] = tested on: OVCAR-3 ovarian
[6] = tested on: HOP-62 NSCLC
[7] = tested on: HT29 colon
[8] = tested on: HCT-116 colon
[9] = tested on: OVCAR-5 ovarian
[10] = tested on: HCC-2998 colon
[11] = tested on: 786-0 renal
[12] = tested on: NCI-H322M lung
[13] = tested on: SNB-19 CNS
[14] = tested on: MDA-MB-435
[15] = tested on: MOLT-4 leukemia
[16] = tested on: RXF 393 renal
[17] = tested on: COLO 205 colon
[18] = tested on: SF-268 CNS
[19] = tested on: SR leukemia
[20] = tested on: OVCAR-4 ovarian
[21] = tested on: IGROV1 ovarian
[22] = tested on: CCRF-CEM leukemia
[23] = tested on: ACHN renal
[24] = tested on: UACC-62 melanoma
[25] = tested on: PC-3 prostate
[26] = tested on: UO-31 renal
[27] = tested on: NCI-H23 lung
[28] = tested on: SNB-75 CNS
[29] = tested on: SN12C renal
[30] = tested on: K-562 leukemia
[31] = tested on: NCI/ADR-RES ovarian
[32] = tested on: SK-MEL-28 melanoma
[33] = tested on: A498 renal
[34] = tested on: CAKI-1 renal
[35] = tested on: SK-OV-3 ovarian
[36] = tested on: DU-145 prostate
[37] = tested on: MDA-MB-231 breast
[38] = tested on: A549 NSCLC
[39] = tested on: T-47D breast
[40] = tested on: NCI-H460 lung
[41] = tested on: SF-295 CNS
[42] = tested on: UACC-257 melanoma
[43] = tested on: NCI-H522 lung
[44] = tested on: KM12 colon
[45] = tested on: HOP-92 NSCLC
[46] = tested on: HCT-15 colon
[47] = tested on: SF-539 CNS
[48] = tested on: HL-60(TB) leukemia
[49] = tested on: RPMI-8226 leukemia

SMILES: CCC[As](CCC)SCC(O)CO (stereo not drawn)
- GI50 [1]: 222 nM
- TGI [1]: 531 nM
- GI50 [2]: 619 nM
- TGI [2]: 1560 nM
- GI50 [3]: 239 nM
- TGI [3]: 601 nM
- GI50 [4]: 170 nM
- TGI [4]: 638 nM
- GI50 [5]: 373 nM
- TGI [5]: > 100000 nM
- GI50 [6]: 325 nM
- TGI [6]: 1470 nM
- GI50 [7]: 293 nM
- TGI [7]: > 100000 nM
- GI50 [8]: 167 nM
- TGI [8]: 5030 nM
- GI50 [9]: 1390 nM
- TGI [9]: 3290 nM
- GI50 [10]: 381 nM
- TGI [10]: 1070 nM
- GI50 [11]: 68.8 nM
- TGI [11]: 203 nM
- GI50 [12]: 1540 nM
- TGI [12]: 3120 nM
- GI50 [13]: 477 nM
- TGI [13]: 2890 nM
- GI50 [14]: 259 nM
- TGI [14]: 949 nM
- GI50 [15]: 108 nM
- TGI [15]: 5780 nM
- GI50 [16]: 38.9 nM
- TGI [16]: 161 nM
- GI50 [17]: 173 nM
- TGI [17]: > 100000 nM
- GI50 [18]: 211 nM
- TGI [18]: 551 nM
- GI50 [19]: 3770 nM
- TGI [19]: 7600 nM
- GI50 [20]: 206 nM
- TGI [20]: 596 nM
- GI50 [21]: 40.6 nM
- TGI [21]: > 100000 nM
- GI50 [22]: 53.1 nM
- TGI [22]: > 100000 nM
- GI50 [23]: 57.5 nM
- TGI [23]: 183 nM
- GI50 [24]: 46.6 nM
- TGI [24]: 291 nM
- GI50 [25]: 132 nM
- TGI [25]: 634 nM
- GI50 [26]: 52.7 nM
- TGI [26]: 276 nM
- GI50 [27]: 387 nM
- TGI [27]: 5800 nM
- GI50 [28]: 181 nM
- TGI [28]: 651 nM
- GI50 [29]: 175 nM
- TGI [29]: 313 nM
- GI50 [30]: 45.1 nM
- TGI [30]: 3730 nM
- GI50 [31]: 219 nM
- TGI [31]: 487 nM
- GI50 [32]: 140 nM
- TGI [32]: 437 nM
- GI50 [33]: 302 nM
- TGI [33]: 1020 nM
- GI50 [34]: 220 nM
- TGI [34]: 455 nM
- GI50 [35]: 319 nM
- TGI [35]: 974 nM
- GI50 [36]: 196 nM
- TGI [36]: 397 nM
- GI50 [37]: 169 nM
- TGI [37]: 357 nM
- GI50 [38]: 628 nM
- TGI [38]: 2530 nM
- GI50 [39]: 327 nM
- TGI [39]: 20000 nM
- GI50 [40]: 1440 nM
- TGI [40]: 3460 nM
- GI50 [41]: 1960 nM
- TGI [41]: 4140 nM
- GI50 [42]: 167 nM
- TGI [42]: 403 nM
- GI50 [43]: 24.5 nM
- TGI [43]: 54.1 nM
- GI50 [44]: 333 nM
- TGI [44]: 1210 nM
- GI50 [45]: 15.7 nM
- TGI [45]: 51.3 nM
- GI50 [46]: 22.6 nM
- TGI [46]: 79.9 nM
- GI50 [47]: 234 nM
- TGI [47]: 603 nM
- GI50 [48]: 82.6 nM
- TGI [48]: 2680 nM
- GI50 [49]: 182 nM
- TGI [49]: 668 nM
